This passage reports activity, negative = inhibition results from PubChem BioAssay AID998 (National Center for Advancing Translational Sciences (NCATS), 2007).

For the assay, the target named is Alpha-galactosidase A (Homo sapiens) (UniProt P06280). Nature of the assay: Counterscreen for Glucocerebrosidase Inhibitors: qHTS Assay for Coffee Bean alpha-Galactosidase at pH 5.9.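 Also: plate controls were uninhibited enzyme for no effect and no-enzyme basal signal for full effect.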 To be noted: coffee bean alpha-galactosidase enzyme assay; at 76.9 µM (top of the series). Put shortly:
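In 50 mM citric acid pH 5.9 with 0.005% Tween-20, coffee bean enzyme hydrolyses 80 uM 4-MU alpha-D-galactopyranoside over 20 min at RT. Activity is normalized to controls; AC50 comes from Hill-modelled concentration-response data.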

The structures appear in SMILES notation. The list shows a part of the results, in another mix than the full data. Activity calls are given as the source filed them. Calls follow the shape of the dose curve; as a rule, active = well fitted curve in the direction sought with a large enough effect; inactive = no such curve, though single readings can be large or run the other way.

With `N#[O+].[C-]#N.[C-]#N.[C-]#N.[C-]#N.[C-]#N.[Fe+2].[Na+].[Na+]`, the activity, negative = inhibition was inactive: 3.31%.
